Screening results (PubChem BioAssay)
Only some compounds are listed: those with a hit (about 0.92% of all), similar ones and a draw of the others.
RXFP1 antag – RXFP1 (human) relaxin receptor antagonism. HEK293-RXFP1, relaxin-stimulated cAMP HTRF, 30 min; stronger effect = lower value. activity change, negative = inhibition, % at 57.5 µM. AID 1259400. Q9HBX9. 350,000 compounds, 0.59% hits;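 active means activity change of -60% or lower, but not beyond a set lower limit; inconclusive means change between -60% and -40%, or beyond the set limit; inactive means change above -40%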; further: on the % scale 0 is the no-effect control and ±100 the full control effect
PKM2 activator – PKM2 (human) enzyme activation; Potency, µM (highest dose often 57.5 µM), for the others: at the top dose activation, hits mostly activators; purified PKM2, Kinase-Glo ATP luminescence, activation; response scale: 0% is enzyme alone, no compound; AID 1631; 260,000 compounds, 0.34% hits; further: potency means the concentration at half of the fitted maximal effect; on the % scale 0 is the no-effect control and ±100 the full control effect; nearly all actives have a fitted effect of over 55% in size
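Kinase-Glo luminescence reports ATP generated from ADP (0.1 mM) and PEP (0.5 mM) by purified hPK-M2 after 1 h at room temperature, pH 7.2 imidazole buffer; intermediate enzyme activity allows detecting inhibitors and activators.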
GALK inh – blocks human galactokinase activity; 270,000 compounds, 0.007% hits; Purified GALK, Kinase-Glo residual ATP luminescence; P51570; Potency, µM (series often up to 57.5 µM), for inactives: at the highest dose activity change, negative = inhibition, most hits filed as inhibitors; AID 1868; further: potency means the concentration at half of the fitted maximal effect; on the % scale 0 is the no-effect control and ±100 the full control effect
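5 nM enzyme, 35 uM ATP, 100 uM galactose, 20 mM HEPES pH8.0, 5 mM MgCl2; 1 h RT; residual ATP by Kinase-Glo Plus luminescence, qHTS format.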
Luc counter – Kinase-Glo luciferase inhibition (counter-screen) | Q27757 | Kinase-Glo luciferase, ATP luminescence, 8 min | Potency, µM (doses to about 38.3 µM), inactives show at the top dose activity change, negative = inhibition, usual class: inhibitors | 200,000 compounds, 0.28% hits; further: potency means the concentration at half of the fitted maximal effect; on the % scale 0 is the no-effect control and ±100 the full control effect; nearly all actives have a fitted effect of over 60% in size
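Substrate mix (final 50 mM imidazole pH 7.2, 50 mM KCl, 7 mM MgCl2, 10 uM ATP, 0.01% Tween 20, 0.05% BSA) plus pin-tool compound, then Kinase-Glo detection mix; 8 min ambient, luminescence read.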
RXFP1 ag – activates the human relaxin receptor RXFP1. Q9HBX9. HEK293T-RXFP1 cAMP TR-FRET, 30 min; response scale: percent of porcine relaxin response, buffer zero. Potency, µM (series often up to 57.5 µM), without a hit: top-dose activation, most hits filed as activators. 370,000 compounds, 0.3% hits; further: potency means the concentration at half of the fitted maximal effect; on the % scale 0 is the no-effect control and ±100 the full control effect; nearly all actives have a fitted effect of over 60% in size
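HEK293 cells stably expressing RXFP1, treated 30 min at 37C with compounds plus PDE4 inhibitor Ro 20174; cAMP measured by HTRF TR-FRET. Normalized to buffer and 29 nM porcine relaxin; EC50 by Hill fit.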
miR-21 reporter – miR-21 reporter, rising signal; HeLa miR-21 FLuc reporter, luciferase, 48 h; Potency, µM (top dose mostly 38.3 µM), without a hit: at the top dose reporter change, positive = more light; 340,000 tested, under 10 active; active = well fitted rising curve with a large enough effect; inconclusive = small, poorly fitted or top-dose-only effect; inactive = no such curve, though single readings can be large or run the other way;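 note: % of control where 0% means no effect; miR-21 action dims this reporter so a rising signal means less miR-21 action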
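HeLa cells stably expressing CMV-driven firefly luciferase with a downstream miR-21 binding sequence, endogenously expressing miR-21, were treated with titrations (up to about 40uM final) for 48 hours at 37 degree Celsius. Luciferase luminescence was read after lysis.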
* = called active by the depositor; u = inconclusive; x = no result given; [ ] = dose if it differs, or a comment. Unless noted, the call rests on the fitted dose curve; in most records, active means well fitted curve in the direction sought with a large enough effect; inconclusive means small, poorly fitted or top-dose-only effect, or another doubt; inactive means no such curve, though single readings can be large; an effect the other way counts as inactive or inconclusive.

Under each structure: RXFP1 antag, PKM2 activator, GALK inh, Luc counter, RXFP1 ag, miR-21 reporter
- Cc1cc(C(=O)O)ccc1-c1ccc(/C=C2\NC(=O)N(Cc3ccccc3Cl)C2=O)o1
 : -37.5, 20µM*, -2.6%, 4.8%, 4.7%, -6.1%
- O=C(NCCN1CCOCC1)c1c(O)nc2ccccn2c1=O
 : -90.7*, x, 4.0%, x, 17.2%, -1.2%
- Cc1ccn2c(=O)c(C(=O)NCCN3CCOCC3)c(O)nc2c1
 : 17.9, x, 5.1%, x, 1.4%, 0.4%
- O=C(NC(=S)NNC(=O)c1ccccc1O)c1ccco1
 : -16.7, -6.6%, x, -3.3%, 1.6%, -5.1%
- O=C(NC(=S)NNC(=O)c1cc2ccccc2cc1O)c1ccco1
 : -69.7*, -24.0%, -2.2%, 0.3%, -0.8%, 10.9%
- CC(C)CC(=O)N1CCN(S(=O)(=O)c2ccccc2)CC1
 : 3.2, -14.1%, -1.9%, -0.5%, -3.3%, 1.9%
- CCN(CC)C(=O)N1CCN(S(=O)(=O)c2c(C)cc(C)cc2C)CC1
 : 14.8, 0.1%, -2.5%, 0.3%, 21.9%, -5.0%
- Cc1cc(C)c(S(=O)(=O)N2CCN(C(=O)CCn3nc(C)c(C)c3C)CC2)c(C)c1
 : 3.5, 14.1µM*, 16.9%, x, 0.5%, 9.1%
- Cc1nn(CCC(=O)N2CCN(S(=O)(=O)c3ccccc3)CC2)c(C)c1C
 : -3.3, 11.2µM*, 4.2%, x, 4.2%, 3.4%
- COc1ccc(C2C(C#N)=C(N)OC3=C2C(=O)CC(C)(C)C3)cc1OC (stereo not drawn)
 : -76.0*, 0.1%, 0.0%, -1.0%, -0.1%, 0.3%
- COc1cc(OC)c(C2C(C#N)=C(N)OC3=C2C(=O)CC(C)(C)C3)cc1OC (stereo not drawn)
 : -1.4, 5.1%, -0.1%, -2.8%, -1.1%, 8.0%
- CCOC(=O)c1cc2c(=O)n3ccccc3nc2n(Cc2ccco2)c1=NC(=O)c1ccccc1OCC
 : -5.4, 27.4%, 1.0%, 0.8%, 28.2µM*, 0.2%
- COC(=O)c1ccccc1NC(=O)c1ccc(CN2CC(=O)N3CCCCC3C2=O)cc1 (stereo not drawn)
 : 0.8, x, x, x, 2.1%, -0.4%
- N=C1/C(=C\c2coc3ccc(O)cc3c2=O)C(=O)N=C2SC=CN12
 : -19.9, 28.2µM*, x, x, -1.9%, 12.0%
- COC(=O)[C@@]1(Cc2ccc(F)cc2)[C@H]2c3cc(C(=O)N(C)C)n(Cc4cc(F)c(F)c(F)c4)c3C[C@H]2CN1C(=O)c1ccccc1
 : x, -13.7%, x, -1.3%, x, x
- N#Cc1c(-c2ccccc2)nc(SCC(=O)Nc2ccccc2)[nH]c1=O
 : 6.7, 0.1%, -2.7%, 2.7%, 26.3%, -3.6%
- CCc1ccc(NC(=O)CSc2nc(-c3ccccc3)c(C#N)c(=O)[nH]2)cc1
 : 4.9, x, x, x, 25.1µM*, -1.3%
- N#Cc1c(-c2ccccc2)nc(SCC(=O)Nc2nnc(C(F)(F)F)s2)[nH]c1=O
 : 22.0, x, 14.3%, 7.8%, 17.8µM*, -0.2%
- Cc1cc(C)nc(NS(=O)(=O)c2ccc(NC(=O)CSc3nc(-c4ccccc4)c(C#N)c(=O)[nH]3)cc2)n1
 : 19.1, -0.8%, 2.0%, 2.3%, 17.8µM*, -0.7%
- Cn1c(=O)[nH]c(=O)c2c1nc(N1CCCCCC1)n2CCOc1ccccc1
 : 2.4, 3.4%, -1.0%, -2.1%, -1.1%, -0.1%

Compounds from the list above with an aryl thioether with sulfur outside any ring:
Under each structure: RXFP1 antag, PKM2 activator, GALK inh, Luc counter, RXFP1 ag, miR-21 reporter
- N#Cc1c(-c2ccccc2)nc(SCC(=O)Nc2ccccc2)[nH]c1=O
 : 6.7, 0.1%, -2.7%, 2.7%, 26.3%, -3.6%
- CCc1ccc(NC(=O)CSc2nc(-c3ccccc3)c(C#N)c(=O)[nH]2)cc1
 : 4.9, x, x, x, 25.1µM*, -1.3%
- N#Cc1c(-c2ccccc2)nc(SCC(=O)Nc2nnc(C(F)(F)F)s2)[nH]c1=O
 : 22.0, x, 14.3%, 7.8%, 17.8µM*, -0.2%
- Cc1cc(C)nc(NS(=O)(=O)c2ccc(NC(=O)CSc3nc(-c4ccccc4)c(C#N)c(=O)[nH]3)cc2)n1
 : 19.1, -0.8%, 2.0%, 2.3%, 17.8µM*, -0.7%

(list continues)
Under each structure: RXFP1 antag, PKM2 activator, GALK inh, Luc counter, RXFP1 ag, miR-21 reporter
- O=[N+]([O-])c1ccccc1OCCCn1cnc2ccccc21
 : -11.7, 17.8µM*, -1.5%, -0.1%, 0.5%, -75.1%
- Oc1ccc(O)c(Cc2nc3ccccc3s2)c1
 : -77.3*, -2.7%, 11.4%, -4.2%, -2.9%, 5.3%
- Cc1ccc(CNC(=O)CCc2nnc3ccc(NCCCN4CCCC4=O)nn23)cc1
 : -9.3, x, -0.7%, x, u, -4.4%
- CSc1ccc(CCNC(=O)CCc2nnc3ccc(NCCCN4CCCC4=O)nn23)cc1
 : -69.9*, -8.2%, -1.6%, x, u, -2.7%
- CC(C)Oc1ccc(C(=O)Nc2ccc(S(=O)(=O)N3CCN(C)CC3)cc2)cc1
 : -1.5, -0.7%[11.5 µM], -1.0%, x, 2.0%, 12.4%
- CCn1c(=O)c2sccc2n2c(CCCC(=O)NCc3cccnc3)nnc12
 : -7.1, x, -0.4%, x, 17.8µM*, 4.5%
- Cn1c(=O)c2sccc2n2c(CCCC(=O)NCc3ccco3)nnc12
 : 4.9, x, -5.2%, x, 14.1µM*, 2.8%
- COc1ccccc1NC(=O)CCCc1nnc2n(C)c(=O)c3sccc3n12
 : 11.0, 9.5%, -1.9%, x, 4.47µM*, -0.3%
- O=C(NCCN1CCCC1)c1ccc(Cc2nc3ccccc3[nH]2)cc1
 : x, x, x, -2.5%, x, x
- CN(C(=O)Cn1cccc1C1=NC(c2ccccc2)CO1)c1ccccc1 (stereo not drawn)
 : 4.2, -1.2%, 8.4%, 2.5%, -1.0%, 10.8%
- Cc1ccc(N=C2NC(=O)/C(=C/c3cccs3)S2)cc1C
 : -76.7*, -2.2%, 2.3%, 0.5%, 0.0%, -18.4%
- Cc1cccc(N=C2NC(=O)/C(=C\c3cccs3)S2)c1
 : -28.1, -22.3%, -1.5%, -3.3%, 0.4%, 9.9%
- c1ccc(C(c2cccc3c2ccc2ccccc23)[C@H](c2ccccc2)c2cccc3c2ccc2ccccc23)cc1 (stereo partly drawn)
 : x, x, x, -2.6%[7.66 µM], x, x
- CN(C)c1ccc(/C=C(\Cl)c2nc3ccccc3s2)cc1
 : x, -0.2%, -3.5%, 12.6µM*, 0.1%, -32.1%
- O=C(O)c1ccc(C=C(c2nc3ccccc3s2)c2nc3ccccc3s2)cc1
 : -23.3, 2.0%, 1.0%, 7.4%, -0.9%, -7.2%
- O=C(NNC(=O)c1ccccc1F)c1ccc(-c2ccc(Cl)cc2)o1
 : -87.5*, x, x, x, 0.0%, x
- Nc1ccccc1N=Cc1ccc(-c2cccc(Cl)c2)o1
 : -0.2, 28.2µM*, 0.4%, -2.7%, 16.4%, 20.0%
- CCCCCC1Nc2cc(C(F)(F)F)c(S(N)(=O)=O)cc2S(=O)(=O)N1 (stereo not drawn)
 : -1.5, x, x, x, x, x
- CC(NC(CCc1ccccc1)C(=O)O)C(=O)N1C(=O)N(C)CC1C(=O)O (stereo not drawn)
 : 6.7, x, x, x, x, x
- Cc1ccc(-c2csc(N/N=C/c3ccco3)n2)cc1
 : -37.1, -1.9%, x, -1.0%, -0.8%, -44.1%

Under each structure: RXFP1 antag, PKM2 activator, GALK inh, Luc counter, RXFP1 ag, miR-21 reporter
- CN(C)S(=O)(=O)c1ccc(-c2csc(N/N=C/c3ccco3)n2)cc1
 : -71.6*, 7.2%, 0.6%, x, -0.3%, u
- Cc1sc(N/N=C/c2ccco2)nc1-c1ccccc1
 : -89.0*, 3.5%, 1.0%, -0.7%, -0.4%, -24.7%
- O=C(O)CCCC[P+](c1ccccc1)(c1ccccc1)c1ccccc1
 : 4.4, x, x, x, x, x
- Cc1ccc(N=Cc2cccc(O)c2O)c(C)c1
 : x, 12.6µM*, -2.7%, -15.2%, 2.0%, 1.1%
- C=CCC(C)(O)/C=C/c1ccccc1 (stereo not drawn)
 : x, x, x, 2.1%, x, x
- c1ccc(Cn2nnc3c(N4CCCC4)ncnc32)cc1
 : 8.3, 15.8µM*, 8.7%, -1.4%, 0.3%, -22.7%
